Experimental data: patent publication US20040058855A1, “Use of materials having zinc ionophoric behavior” (priority 2002, published 2004)

Experiment: Zinc availability test with metallochromic dye zincon (colour change orange to blue)
Type: physicochemical
Details: ~30 mg/10 ml water, pH 7-11, zincon in ethanol
Source text: Zinc-containing materials (ZCMs) differ with respect to how strongly the zinc ion (Zn^2+) is held by counterions in the crystal lattice. The benefits discussed herein depend upon having available Zn^2+. […] The response is a binary visual assessment of whether or not the color changes indicating zinc-binding.
The method is based on the commercial metallochromic dye zincon. Zincon changes from an orange color to blue upon binding zinc and provides the basis for detecting available Zn^2+: [drawing 20]
The specific procedure involves making a stock solution of zincon in ethanol (˜50 mg/10 ml ethanol). The ZCM is then added to water (˜30 mg/10 ml water) and agitated (pH range should be 7-11). Three to four drops of zincon solution are then added to the ZCM in water, agitated and a visual assessment of color change made.

Q: Which “available Zn^2+ (zincon colour change, binary visual assessment)” value does the source give for zinc salicylate here?
A: Its value is “have available zinc”.
